By UniProt entry, the sequences of proteins in these tests, tags left out.
UniProt P35557, whole entry: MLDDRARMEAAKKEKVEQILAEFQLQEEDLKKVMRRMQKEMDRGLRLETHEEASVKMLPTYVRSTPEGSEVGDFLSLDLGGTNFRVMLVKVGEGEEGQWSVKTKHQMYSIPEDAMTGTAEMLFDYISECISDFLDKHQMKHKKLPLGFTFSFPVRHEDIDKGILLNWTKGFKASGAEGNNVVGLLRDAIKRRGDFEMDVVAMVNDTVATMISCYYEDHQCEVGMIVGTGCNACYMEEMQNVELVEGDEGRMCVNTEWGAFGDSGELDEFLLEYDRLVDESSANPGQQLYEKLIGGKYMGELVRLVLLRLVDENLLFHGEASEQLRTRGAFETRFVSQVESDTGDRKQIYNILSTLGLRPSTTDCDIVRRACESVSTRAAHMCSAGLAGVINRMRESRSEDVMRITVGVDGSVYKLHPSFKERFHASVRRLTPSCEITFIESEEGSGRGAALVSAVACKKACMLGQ

In article PMC5399312 (Journal of Experimental & Clinical Cancer Research : CR, 2017):

Tests used:
HK1 = target: T1, HK1 (Homo sapiens, UniProt P19367); test: In vitro enzyme inhibition assay (G6P-DH coupled, NADH 340 nm); format: biochemical
T1 construct: purchased Shanghai yuanye Bio-Technology Co., Ltd (China)
T1 sequence (P19367 1-917): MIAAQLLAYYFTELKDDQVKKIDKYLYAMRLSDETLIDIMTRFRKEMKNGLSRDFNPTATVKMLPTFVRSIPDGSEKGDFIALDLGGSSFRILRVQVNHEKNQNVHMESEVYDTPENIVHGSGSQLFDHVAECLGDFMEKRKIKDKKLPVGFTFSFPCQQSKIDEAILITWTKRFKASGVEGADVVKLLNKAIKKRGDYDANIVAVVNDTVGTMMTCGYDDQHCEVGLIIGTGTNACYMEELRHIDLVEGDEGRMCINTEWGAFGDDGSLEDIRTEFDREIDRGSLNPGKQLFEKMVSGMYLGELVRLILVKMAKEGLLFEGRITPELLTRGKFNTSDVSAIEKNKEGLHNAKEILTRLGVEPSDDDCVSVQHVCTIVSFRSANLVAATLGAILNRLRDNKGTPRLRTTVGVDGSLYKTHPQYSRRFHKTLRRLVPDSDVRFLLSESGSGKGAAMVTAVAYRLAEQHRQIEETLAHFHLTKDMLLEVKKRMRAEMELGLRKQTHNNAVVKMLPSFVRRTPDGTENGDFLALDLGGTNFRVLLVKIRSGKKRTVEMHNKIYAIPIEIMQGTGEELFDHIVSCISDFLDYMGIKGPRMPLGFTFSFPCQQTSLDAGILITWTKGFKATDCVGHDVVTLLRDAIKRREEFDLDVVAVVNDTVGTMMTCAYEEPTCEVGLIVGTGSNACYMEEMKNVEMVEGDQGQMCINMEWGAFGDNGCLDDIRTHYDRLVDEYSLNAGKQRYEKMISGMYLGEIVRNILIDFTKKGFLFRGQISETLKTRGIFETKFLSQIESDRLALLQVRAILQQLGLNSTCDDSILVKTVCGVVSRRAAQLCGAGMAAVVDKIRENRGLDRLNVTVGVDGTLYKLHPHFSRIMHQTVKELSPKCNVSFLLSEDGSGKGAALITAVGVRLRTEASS
Protocol: (§1) Then 85 μL assay mix containing 100 mM Tris HCl pH 8.0, 5 mM MgCl2, 200 mM Glucose, 0.8 mM ATP, 1 mM NAD^+, 0.25 Units of G6P-DH, was added.

HK4 = target: T2, HK4 (Homo sapiens, UniProt P35557); test: as above; format: biochemical
T2 construct: made in house; host or cells: E. coli BL21 (DE3)
Protocol: as §1

What does the source list for `NC(CO)C(=O)NNCc1ccc(O)c(O)c1O` (centres unmarked) [Benz, Benserazide]?
selectivity against HK2 versus HK1 (HK1): about 5 fold; selectivity against HK2 versus HK4 (HK4): 8 fold
